The entries are a selection whose mix differs from that of the whole data set. Some salts and complexes are drawn in separate pieces, as the source files them; their charges need not balance. Calls of active or inactive are those of the source.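 The calls were made as follows: active = B-score of calcium response area above 5 SD of library B-scores, with initial fluorescence ratio within 5 SD of library; inactive = the rest.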
target: Short transient receptor potential channel 4 (Mus musculus) (UniProt Q9QUQ5); test: TRPC4 channel potentiators under submaximal DAMGO – cell-based, mouse TRPC4beta, HEK293 mu-opioid, Fluo-4 calcium, primary screen (AID 2227); conditions: DAMGO EC20, Fluo-4 Ca2+ flux, at 10 µM

Sequences of proteins named here, by UniProt entry; tags and fusion partners are left off.
UniProt Q9QUQ5, whole entry: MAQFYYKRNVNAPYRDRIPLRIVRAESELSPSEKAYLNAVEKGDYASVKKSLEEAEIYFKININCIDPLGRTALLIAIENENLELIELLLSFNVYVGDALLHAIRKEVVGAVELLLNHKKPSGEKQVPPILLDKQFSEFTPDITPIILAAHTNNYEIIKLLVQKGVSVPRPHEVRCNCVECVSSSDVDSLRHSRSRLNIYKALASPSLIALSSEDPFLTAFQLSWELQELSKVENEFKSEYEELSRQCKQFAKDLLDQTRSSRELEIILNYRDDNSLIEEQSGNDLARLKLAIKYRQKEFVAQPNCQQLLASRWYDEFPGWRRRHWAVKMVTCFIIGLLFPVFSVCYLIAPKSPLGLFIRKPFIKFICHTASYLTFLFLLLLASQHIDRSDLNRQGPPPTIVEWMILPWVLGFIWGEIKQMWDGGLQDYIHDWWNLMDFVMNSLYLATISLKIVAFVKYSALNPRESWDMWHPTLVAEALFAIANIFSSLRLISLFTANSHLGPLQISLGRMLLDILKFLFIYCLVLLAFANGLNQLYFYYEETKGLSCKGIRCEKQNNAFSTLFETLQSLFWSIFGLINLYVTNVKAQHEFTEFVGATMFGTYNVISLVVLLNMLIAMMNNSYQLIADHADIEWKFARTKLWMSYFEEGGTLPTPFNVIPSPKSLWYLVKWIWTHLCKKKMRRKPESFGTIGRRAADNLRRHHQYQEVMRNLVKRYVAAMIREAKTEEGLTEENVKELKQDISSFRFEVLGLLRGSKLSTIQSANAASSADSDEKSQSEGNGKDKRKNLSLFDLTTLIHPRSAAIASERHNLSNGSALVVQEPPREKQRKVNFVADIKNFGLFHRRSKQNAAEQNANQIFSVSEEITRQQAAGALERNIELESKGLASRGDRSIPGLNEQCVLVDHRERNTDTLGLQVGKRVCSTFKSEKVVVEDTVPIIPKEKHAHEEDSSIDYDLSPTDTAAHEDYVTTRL

SMILES	outcome
COC(=O)c1cc2c(s1)N=C(c1ccccc1)N(C)P2(=O)N1CCOCC1 (stereo unspecified)	inactive
CC(=O)NC(SC(=S)N(CC(C)C)CC(C)C)C(Cl)(Cl)Cl (stereo unspecified)	inactive
Cc1ccc(OP(=O)(Nc2ccccn2)Oc2ccc(C)cc2)cc1	inactive
Cc1ccccc1OP(=O)(Nc1ccccn1)Oc1ccccc1C	inactive
CCCCCOc1ccc(NP(C)(=O)Oc2ccc(Cl)cc2Cl)cc1 (stereo unspecified)	inactive
O=[N+]([O-])c1cc([N+](=O)[O-])c(OC2CCCCC2O)c([N+](=O)[O-])c1 (stereo unspecified)	inactive
CN(C)C(=O)Oc1noc2ccccc12	inactive
CP(=O)(Nc1ccccc1)Oc1ccc(F)cc1 (stereo unspecified)	inactive
O=P1(Nc2nc3ccc(Cl)cc3s2)COc2ccccc2O1 (stereo unspecified)	inactive
CCOc1ccc(C2=NCC(CBr)S2)cc1 (stereo unspecified)	inactive
CC(C)(C)C(=O)NC(Sc1ccccc1)C(Cl)(Cl)Cl (stereo unspecified)	inactive
CC(C)c1ccc(OP(C)(=O)Nc2ccc(SC(F)(F)F)cc2)cc1 (stereo unspecified)	inactive
CP(=O)(Nc1ccccc1F)Oc1ccccc1 (stereo unspecified)	inactive
O=C(OCCN1CCN(CCOCc2ccccc2)CC1)C(O)(c1ccccc1)c1ccccc1	inactive
C[C@H]1OP(=O)(Oc2ccccc2)C[C@@H]2O[C@@H]21 (stereo partly specified)	inactive
C[C@@H]1C=CCP(=O)(Oc2ccccc2)O1 (stereo partly specified)	inactive
CC(=O)c1ccc(N2CC2c2ccncc2)cc1 (stereo unspecified)	inactive
O=C(OC1CN2CCC1CC2)c1ccc([N+](=O)[O-])cc1 (stereo unspecified)	inactive
CC(=O)Nc1ccc([As](=O)(O)O)c(O)c1	inactive
COc1ccc2c(c1O)-c1c(O)c(OC)cc3c1[C@H](C2)[N+](C)(C)CC3.O=[N+]([O-])c1cc([N+](=O)[O-])c([O-])c([N+](=O)[O-])c1[O-]	inactive
CC(=O)Nc1ccc(Oc2c([N+](=O)[O-])cc([N+](=O)[O-])cc2[N+](=O)[O-])cc1	inactive
O=P(Nc1nccs1)(c1ccccc1)c1ccccc1	inactive
CC(C)C(=O)NC(Sc1ccccc1)C(Cl)(Cl)Cl (stereo unspecified)	inactive

SMILES	outcome
CP(=O)(Nc1ccc(SC(F)(F)F)cc1)Oc1ccc(F)cc1 (stereo unspecified)	inactive
c1nnnn1CCn1cnnn1	inactive
CCOP(C)(=S)SCC(=O)NC(C)(CC)C(=O)O (stereo unspecified)	inactive
CP(=O)(Nc1ccc2c(c1)OCCO2)Oc1ccccc1 (stereo unspecified)	inactive
CN(C)C1(CNC(=O)c2ccc(Cl)c(S(N)(=O)=O)c2)CCCCC1	inactive
O=P(Nc1ccccn1)(c1ccc(Br)cc1)c1ccc(Br)cc1	inactive
COc1ccc(OP(C)(=O)Nc2cccc(Br)c2)cc1 (stereo unspecified)	inactive
COc1ccc(NP(C)(=O)Oc2ccccc2OC)cc1 (stereo unspecified)	inactive
O=P(Nc1nc2ccccc2s1)(c1ccccc1)c1ccccc1	inactive
CN(C)CCOC(=O)C(O)(c1ccccc1)C1CCCCC1 (stereo unspecified)	inactive
C[C@H]1OP(=O)(Oc2ccccc2)[C@H](O)[C@H](O)[C@H]1N=[N+]=[N-] (stereo partly specified)	inactive
O=[As](O)(c1ccccc1)c1ccc(O)cc1	inactive
Cc1cc(-c2cccc3ccccc23)c(C)cn1.O=[N+]([O-])c1cc([N+](=O)[O-])c(O)c([N+](=O)[O-])c1	inactive
O=[N+]([O-])c1cc([N+](=O)[O-])c(NCC2CCS(=O)(=O)C2)c([N+](=O)[O-])c1 (stereo unspecified)	inactive
CC(=O)NC(SC(=S)N(C)C)C(Cl)(Cl)Cl (stereo unspecified)	inactive
O=[N+]([O-])c1ccc(OP2(=O)COCCO2)cc1 (stereo unspecified)	inactive
O=[N+]([O-])c1ncn(CCn2cnc([N+](=O)[O-])n2)n1	inactive
O=[N+]([O-])c1ccc(O)c(/C=N/Nc2ccc([N+](=O)[O-])cc2[N+](=O)[O-])c1	inactive
O=C(OC1CN2CCC1CC2)c1cccc(Cl)c1 (stereo unspecified)	inactive
C(Cc1nn[nH]n1)Cc1nn[nH]n1	inactive
Nc1ccc([As](=O)(O)c2ccc([N+](=O)[O-])cc2)cc1	inactive
Cc1nn(-c2ccccc2)c2c1P(=O)(N1CCOCC1)N(C)C(c1ccccc1)=N2 (stereo unspecified)	inactive
Cc1ccc(C(=O)OC2CN3CCC2CC3)cc1 (stereo unspecified)	inactive

SMILES	outcome
CC1CCC(C(C)C)C(OP(=O)(Nc2ccccn2)c2ccccc2)C1 (stereo unspecified)	inactive
COc1cc(C2NCCC3(OCCO3)C2(C)C)cc(OC)c1OC.O=[N+]([O-])c1cc([N+](=O)[O-])c(O)c([N+](=O)[O-])c1 (stereo unspecified)	inactive
CN(C)C1(CNC(=O)c2ccc(S(C)(=O)=O)cc2)CCCCC1	inactive
O=[N+]([O-])c1cc([N+](=O)[O-])c(Nc2nnnn2CCO)c([N+](=O)[O-])c1	inactive
CCOC(=O)C(CC)C1=NC(C)(C)Cc2ccccc21.O=[N+]([O-])c1cc([N+](=O)[O-])c(O)c([N+](=O)[O-])c1 (stereo unspecified)	inactive
O=C(/C=C/c1ccccc1)OC1CN2CCC1CC2 (stereo unspecified)	inactive
CN1CCCCC1COC(=O)C1(O)c2ccccc2CCc2ccccc21 (stereo unspecified)	inactive
COc1ccccc1OP(C)(=O)Nc1c(C)cccc1C (stereo unspecified)	inactive
O=P1(Nc2ncccn2)COc2ccccc2OC1	inactive
CCCOc1ccc(NP(C)(=O)Oc2ccc(Cl)cc2)cc1 (stereo unspecified)	inactive
Nc1cccc([As](=O)(O)c2ccccc2)c1	inactive
CP(=O)(Nc1ccc(SC(F)(F)F)cc1)Oc1ccccc1 (stereo unspecified)	inactive
Cc1ccc(OCC(=O)OC2CN3CCC2CC3)cc1 (stereo unspecified)	inactive
O=[As](O)(c1cccs1)c1cccs1	inactive
O=P1(Nc2ccc(Br)cn2)COc2ccccc2OC1	inactive
CCC1=CC2Cc3nc4ccc(Cl)cc4c(N)c3C(C1)C2 (stereo unspecified)	inactive
O=P1(Nc2ccccn2)COc2ccccc2OC1	inactive
O=[N+]([O-])c1cc([N+](=O)[O-])c(-n2nnc3ccccc32)c([N+](=O)[O-])c1	inactive
CCOP(=O)(NC(=NC(C)c1ccccc1)NC(C)c1ccccc1)OCC (stereo unspecified)	inactive
CCOP(=O)(Nc1ccc(C)cn1)OCC	inactive
CN(CCCl)Cc1cc(Cl)c(NC2=NCCN2)c(Cl)c1	inactive
Clc1n[nH]nc1-c1nn[nH][15n]1	inactive
CC(C)(C)C(=O)NC(Sc1ncccn1)C(Cl)(Cl)Cl (stereo unspecified)	inactive

SMILES	outcome
O=[N+]([O-])c1cc([N+](=O)[O-])c(-c2cnn(-c3ccccc3)c2)c([N+](=O)[O-])c1	inactive
COc1ccccc1CNC(=O)COC(=O)C(O)(c1ccccc1)c1ccccc1	inactive
CN(C(=O)Cc1ccc(Cl)c(Cl)c1)[C@@H]1CCCC[C@H]1N1CCCC1	inactive
CC(C)/C=N\N=C(\N)N[N+](=O)[O-]	inactive
O=[As](O)(c1ccccc1Br)c1ccccc1Br	inactive
CC1(CBr)Cn2c(nc3ccccc3c2=O)S1 (stereo unspecified)	inactive
O=C(OC1CN2CCC1CC2)c1ccc(Cl)cc1 (stereo unspecified)	inactive
O=[As](O)(O)c1cccnc1	inactive
COc1cc(C(=O)NCC2(N3CCOCC3)CCCCC2)cc(Cl)c1OC(C)C	inactive
COc1ccccc1OP(C)(=O)Nc1cccc(Br)c1 (stereo unspecified)	inactive
CS(=O)(=O)c1ccc(Cl)c(NC(=O)COC(=O)C(O)(c2ccccc2)c2ccccc2)c1	inactive
Cc1cccc(OCC(=O)OC2CN3CCC2CC3)c1 (stereo unspecified)	inactive
O=[As](O)(c1cccc(O)c1)c1cccc(O)c1	inactive
Cc1cc(C)cc(OP(C)(=O)Nc2ccc(C)cc2C)c1 (stereo unspecified)	inactive
CCOC(=O)c1ccc(NP(C)(=O)Oc2cc(C)cc(C)c2)cc1 (stereo unspecified)	inactive
Cc1cc(C)cc(OP(C)(=O)Nc2ccccn2)c1 (stereo unspecified)	inactive
CP(=O)(Nc1cccc(Br)c1)Oc1ccccc1 (stereo unspecified)	inactive
Cc1ccc(NCCc2c([N+](=O)[O-])cc([N+](=O)[O-])cc2[N+](=O)[O-])cc1	inactive
Nc1cccc2c([As](=O)(O)O)cccc12	inactive
Cc1ccc(C)c(NP(C)(=O)Oc2ccccc2)c1 (stereo unspecified)	inactive
CCCOP(=S)(Nc1nc(N)cc(=O)[nH]1)OCCC	inactive
CCOP(=O)(Nc1cccc2ccccc12)OCC	inactive
O=C(O)c1cccc(Nc2c([N+](=O)[O-])cc([N+](=O)[O-])cc2[N+](=O)[O-])c1	inactive

SMILES	outcome
CCOP1(=S)c2c(C)nn(CCC#N)c2N=C(c2ccccc2F)N1C (stereo unspecified)	inactive
O=P(Nc1nccs1)(Oc1ccccc1)Oc1ccccc1	inactive
O=P(Nc1nccs1)(c1ccccc1)c1nc2ccccc2s1 (stereo unspecified)	inactive
CS(=O)(=O)c1cc([N+](=O)[O-])c2no[n+]([O-])c2c1	inactive
O=C(O)COc1ccc([As](=O)(O)O)cc1[N+](=O)[O-]	inactive
Nc1ccccc1[As](=O)(O)c1ccccc1	inactive
NC(=O)Nc1ccc([As](=O)(O)O)cc1	inactive
N#CCCN(C(=O)COC(=O)C(O)(c1ccccc1)c1ccccc1)c1ccc(F)cc1	inactive
CN(C(=O)Cc1ccccc1)[C@@H]1CC[C@]2(CCCO2)C[C@H]1N1CCCC1	inactive
CCOP1(=S)c2c(C)nn(CCC#N)c2N=C(c2ccc(F)cc2)N1C (stereo unspecified)	inactive
O=[N+]([O-])c1ccc2c(c1)nnn2O	inactive
CN(C)C(=O)c1cc([N+](=O)[O-])cc2c1-c1c(cc([N+](=O)[O-])cc1[N+](=O)[O-])C2=O	inactive
CC1=NCCc2c1[nH]c1ccccc21.O=[N+]([O-])c1cc([N+](=O)[O-])c(O)c([N+](=O)[O-])c1	inactive
CN(C(=O)Cc1ccc(Cl)c(Cl)c1)[C@H]1CC[C@@]2(CCCO2)C[C@@H]1N1CCCC1	inactive
O=[N+]([O-])c1cc([N+](=O)[O-])c(Nc2cccnc2)c([N+](=O)[O-])c1	inactive
C[As](=O)(O)c1cccc(C(=O)O)c1	inactive
O=[As](O)(c1ccc(O)cc1)c1ccccc1O	inactive
Cc1ccc(OP(=O)(Nc2ccc([N+](=O)[O-])cn2)Oc2ccc(C)cc2)cc1	inactive
CC(C)(C)c1ccc(OP(C)(=O)Nc2ccc(SC(F)(F)F)cc2)cc1 (stereo unspecified)	inactive
